{"source": "patent US20220117917A1", "about": "“PH-ACTIVATED NANOPARTICLES” (Ohio State Innovation Foundation, priority 2018, published 2022)", "key": {"BT474 cells": {"system": "BT474 cells", "experiment": "Cell viability and Western blot", "type": "cell-based, human", "settings": "parental cells"}, "[1]": {"system": "HER2-positive breast cancer", "settings": "single therapy; cited from earlier work"}, "BT-474R cells": {"system": "BT-474R cells", "experiment": "Cell viability and Western blot, trastuzumab-resistant cells", "type": "cell-based, human"}, "HER18R cells": {"system": "HER18R cells", "experiment": "Cell viability and Western blot, trastuzumab-resistant cells", "type": "cell-based, human"}, "HER18 cells": {"system": "HER18 cells", "experiment": "Cell viability and Western blot", "type": "cell-based, human", "settings": "parental cells"}}}
{"substance": "trastuzumab: monoclonal anti-HER2 antibody", "values": [{"measurement": "cell proliferation (p27) and AKT signaling (pAKT)", "setting": "BT474 cells", "value": "inhibited cell proliferation (increased p27 levels) and AKT signaling pathway (reduced pAKT levels)"}, {"measurement": "overall response rate", "setting": "[1]", "value": 26, "unit": "%"}, {"measurement": "cell proliferation (p27) and AKT signaling (pAKT)", "setting": "BT-474R cells", "value": "not observed in the resistant cells"}, {"measurement": "increase of IC50 versus parental line", "setting": "BT-474R cells; 72 h", "value": "~10", "unit": "fold"}, {"measurement": "cell proliferation (p27) and AKT signaling (pAKT)", "setting": "HER18R cells", "value": "not observed in the resistant cells"}, {"measurement": "increase of IC50 versus parental line", "setting": "HER18R cells; 72 h", "value": "~10", "unit": "fold"}, {"measurement": "sensitivity to single agent", "setting": "HER18R cells; trastuzumab 1 μg/ml, 72 h", "value": "insensitive"}, {"measurement": "cell proliferation (p27) and AKT signaling (pAKT)", "setting": "HER18 cells", "value": "inhibited cell proliferation (increased p27 levels) and AKT signaling pathway (reduced pAKT levels)"}]}
